Results as given in patent US8425931B2, “Biodegradable hyaluronic acid derivative” (Industrial Technology Research Institute, priority 2003, dated 2013).

Test system: hyaluronidase
Experiment: Anti-enzyme decomposition capability analysis (uronic acid assay)
Assay type: in vitro ADME
Method: 2 mg hyaluronic acid derivative was placed into a 15 ml centrifuge tube. An appropriate amount of hyaluronidase was added into a PBS solution to form a hyaluronidase solution with a concentration of 250 units/ml. 10 ml of the hyaluronidase solution was added into the 15 ml centrifuge tube containing the hyaluronic acid derivative, and then kept at 37° C. (water bath) for 24 hours. […] An appropriate amount of D-glucuronic acid powder was precisely weighted and dissolved in the deionized water to prepare a stock solution for a D-glucuronic acid standard solution. […] Equation for calculating the amount of the hyaluronic acid derivative which is not degradation by the enzyme (hyaluronidase): The hyaluronic acid derivative which is not degradation by the enzyme=(Cg/Cs)×Z×[100/(100-h)]×(401.3/194.1) Cg: Average concentration of D-glucuronic acid in the hyaluronic acid derivative sample solution, represented by mg/g (according to the absorbance value). Cs: Average concentration of sodium hyaluronate in the hyaluronic acid derivative sample solution, represented by mg/g (according to the concentration of the hyaluronic acid derivative sample solution prepared). […]

hyaluronic acid/hyaluronic acid derivative degradation ratio (%): 33.1%
Substance: HA1,040,000-g-100% PEG550 Copolymer [Example B-12]
